Measurements reported in PubChem BioAssay AID1671188 (National Center for Advancing Translational Sciences (NCATS), 2021).
This is a selection; strong and weak results do not stand in their true shares. Records with an inconclusive call do not appear. The source made the active and inactive calls. The call rests on the fitted dose curve; in most records, active means well fitted inhibition curve with a large enough effect; inconclusive means small, poorly fitted or top-dose-only effect; inactive means flat fitted curve, though single readings scatter.

The chains behind the UniProt entries cited, without tags or fusion partners. Where a name states a change or a piece, a line headed by the entry shows the natural chain unless it says otherwise.
UniProt Q8TD30: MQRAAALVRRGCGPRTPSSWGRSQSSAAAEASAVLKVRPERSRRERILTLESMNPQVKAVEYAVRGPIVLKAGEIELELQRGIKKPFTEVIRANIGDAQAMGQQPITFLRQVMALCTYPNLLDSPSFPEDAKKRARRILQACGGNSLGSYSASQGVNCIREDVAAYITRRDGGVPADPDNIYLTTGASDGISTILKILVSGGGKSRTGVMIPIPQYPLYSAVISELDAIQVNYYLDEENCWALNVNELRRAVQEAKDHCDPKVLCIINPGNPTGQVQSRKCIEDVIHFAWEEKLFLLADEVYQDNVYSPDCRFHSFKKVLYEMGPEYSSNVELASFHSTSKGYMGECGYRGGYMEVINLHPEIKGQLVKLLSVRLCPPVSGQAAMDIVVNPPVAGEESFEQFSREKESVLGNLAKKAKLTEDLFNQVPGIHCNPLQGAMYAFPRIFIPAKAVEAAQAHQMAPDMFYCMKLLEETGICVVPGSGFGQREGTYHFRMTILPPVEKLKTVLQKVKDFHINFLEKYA

Molecular target: Alanine aminotransferase 2 (Homo sapiens) (UniProt Q8TD30)
Test: Primary qHTS assay for inhibitors of Glutamate pyruvate transaminase 2 (GPT2); further: nearly all actives have a fitted effect of over 60% in size
Conditions: Recombinant GPT2, coupled pyruvate oxidase/HRP Amplex Red fluorescence; at 88.5 µM (top of the series) unless noted
Protocol: Assay Provider: Zhenghe John Wang Ph.D.
Case Western Reserve University, Cleveland OH
Glutamate pyruvate transaminase 2 (GPT2) catalyzes the reversible transamination of glutamate and pyruvate to provide a-ketoglutarate and alanine. We have optimized an assay for GPT2 enzymatic activity that couples pyruvate formation to detection of fluorescence using an established pyruvate oxidase/horseradish peroxidase / Amplex Red system.
Screening conditions were 250uM a-KG, 2mM L-alanine, and 10ng/uL GPT2 in […] of solution; 10uL of Amplex reaction mix (outlined below) were added so that final concentrations of Amplex reagents in 50uL were 0.2mM ThPP, 0.2U/mL PO and HRP, and 50uM Amplex.
NOTE: The volume of GPT2 in the system depends on the activity of it. The activity is different every batch. You need to test the activity before the assay. For full plate assay with automation, plate 20uL of GPT2 buffer to pin into, then add 10uL of GPT2 dilution followed immediately by 10uL of substrate dilution. 2 Columns of the plate were devoted to GPT2 buffer ([…] PH7.5, 0.0001% Tween) + 50uM AOA (known GPT2 inhibitor) to serve as a positive control. Complete the assay as normal. Amplex-red buffer: […] PH7.5, 1 mM EDTA, 1 mM MgCl2.
1. Combine a-KG and L-alanine at desired concentrations and incubate for at least 10 minutes at 37C. Stocks of L-alanine and a-KG are diluted in distilled water. However, the stocks were diluted in GPT2 buffer for the assay.
2. Prepare GPT2 dilution at the desired concentration in GPT2 buffer.
3. Plate 40uL of GPT2 dilution with 40uL of substrate dilution and let incubate for 30 minutes at room temperature.
4. Add 20uL of Amplex reaction mix prepared as follows: 1.5uL 200U/mL Horseradish Peroxidase, 200mM Thiamine Pyrophosphate, 200U/mL Pyruvate Oxidase; 7.5uL 10mM Amplex Red; 288uL Amplex Buffer.
5. Incubate for 30 minutes at room temperature in the dark, then image using AM_Amplex_Fluorescence on plate reader nearest the window.
On the % scale 0 is the no-effect control and ±100 the full control effect.

Q: How did the activity change, negative = inhibition turn out when `CN(C(=O)Cc1ccccc1)[C@@H]1CC[C@]2(CCCO2)C[C@H]1N1CCCC1` was run?
A: Its activity change, negative = inhibition is inactive: -1.58% [at 57.7 µM].

Q: How did the activity change, negative = inhibition turn out when `CN(C(=O)Cc1ccc(Cl)c(Cl)c1)[C@H]1CC[C@@]2(CCCO2)C[C@@H]1N1CCCC1` was run?
A: The activity change, negative = inhibition was inactive: -1.46% [at 57.7 µM].

Q: `CN(CCCl)Cc1cc(Cl)c(NC2=NCCN2)c(Cl)c1` was tested. Which activity change, negative = inhibition did it give?
A: Its activity change, negative = inhibition is inactive: -3.16% [at 57.7 µM].

Q: For `Cc1cc([N+](=O)[O-])cc([N+](=O)[O-])c1O`, which activity change, negative = inhibition is on record?
A: The activity change, negative = inhibition was inactive: -2.41%.

Q: How did the activity change, negative = inhibition turn out when `CNCc1cc2ccccc2o1` was run?
A: The activity change, negative = inhibition was inactive: 0.634%.

Q: Which activity change, negative = inhibition does the source give for `CCNC(C)Cc1ccc2c(c1)OCO2` (stereo unspecified) here?
A: The activity change, negative = inhibition was inactive: 4.26%.
